Results: patent US9682990B2, “Alcohol-, diol-, and carbohydrate-substituted indenoisoquinolines as topoisomerase I inhibitors” (Purdue Research Foundation, priority 2011, dated 2017)

molecular target: T1, Human recombinant Top1 (Homo sapiens, UniProt P11387); test: Top1-mediated DNA cleavage assay; details: graded relative to 1 uM camptothecin
T1 sequence (P11387 1-765): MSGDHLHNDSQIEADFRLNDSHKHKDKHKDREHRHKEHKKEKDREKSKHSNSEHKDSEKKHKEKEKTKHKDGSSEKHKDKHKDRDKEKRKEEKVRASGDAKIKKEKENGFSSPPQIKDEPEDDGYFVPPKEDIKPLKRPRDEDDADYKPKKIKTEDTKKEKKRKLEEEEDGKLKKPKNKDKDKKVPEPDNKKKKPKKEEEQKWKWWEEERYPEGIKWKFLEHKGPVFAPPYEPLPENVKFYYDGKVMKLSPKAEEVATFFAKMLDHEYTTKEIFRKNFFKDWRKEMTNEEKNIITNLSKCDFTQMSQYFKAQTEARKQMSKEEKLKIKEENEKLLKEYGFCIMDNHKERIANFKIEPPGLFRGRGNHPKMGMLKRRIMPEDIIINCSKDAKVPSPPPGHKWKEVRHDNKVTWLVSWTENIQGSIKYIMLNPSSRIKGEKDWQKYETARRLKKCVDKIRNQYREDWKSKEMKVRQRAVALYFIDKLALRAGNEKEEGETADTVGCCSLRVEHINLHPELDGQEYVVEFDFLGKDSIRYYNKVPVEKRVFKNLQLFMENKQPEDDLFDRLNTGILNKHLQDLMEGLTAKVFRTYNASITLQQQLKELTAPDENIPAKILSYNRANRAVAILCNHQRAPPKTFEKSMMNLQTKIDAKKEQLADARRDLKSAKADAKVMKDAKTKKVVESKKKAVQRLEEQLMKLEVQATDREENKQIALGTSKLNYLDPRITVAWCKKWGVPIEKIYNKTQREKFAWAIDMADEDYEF

Row | Molecule | Top1 Cleavage
1 | O=C1c2ccccc2-c2c1c1ccccc1c(=O)n2CC(O)CO (racemic) [Compound 12c, (2′RS)-5,6-Dihydro-6-[(2′,3′-dihydroxypropyl)]-5,11-dioxo-11H-indeno[1,2-c]isoquinoline] | ++ (++, between 50 and 75% activity)
2 | O=C1c2ccccc2-c2c1c1ccccc1c(=O)n2C[C@H](O)CO [Compound 12a, (2′S)-5,6-Dihydro-6-[(2′,3′-dihydroxypropyl)]-5,11-dioxo-11H-indeno[1,2-c]isoquinoline] | +++ (+++, between 75% and 95% activity)
3 | O=C1c2ccccc2-c2c1c1ccccc1c(=O)n2C[C@@H](O)CO [Compound 12b, (2′R)-5,6-Dihydro-6-[(2′,3′-dihydroxypropyl)]-5,11-dioxo-11H-indeno[1,2-c]isoquinoline] | 0/+
4 | O=C1c2ccccc2-c2c1c1ccccc1c(=O)n2C[C@H](O)[C@@H](O)[C@H](O)CO [Compound 17d, (2′S,3′R,4′R)-5,6-Dihydro-6-(2′,3′,4′,5′-tetrahydroxypentyl)-5,11-dioxo-11H-indeno[1,2-c]isoquinoline] | ++ (++, between 50 and 75% activity)
5 | O=C1c2ccccc2-c2c1c1ccc([N+](=O)[O-])cc1c(=O)n2C[C@H](O)[C@@H](O)[C@H](O)[C@H](O)CO [Compound 19, (2′S,3′R,4′R,5′R)-5,6-Dihydro-6-(2′,3′,4′,5′,6′-pentahydroxyhexyl)-3-nitro-5,11-dioxo-11H-indeno[1,2-c]isoquinoline] | ++++
6 | O=C(CO)Cn1c2c(c3ccccc3c1=O)C(=O)c1ccccc1-2 [Compound 25, 5,6-Dihydro-6-(3′-hydroxy-2′-oxopropyl)-5,11-dioxo-11H-indeno[1,2-c]isoquinoline] | + (+, between 20 and 50% activity)
7 | COc1cc2c3c(n(C[C@H](O)CO)c(=O)c2cc1OC)-c1ccccc1C3=O [Compound 29, (2′S)-5,6-Dihydro-6-(2′,3′-dihydroxypropyl)-2,3-dimethoxy-5,11-dioxo-11H-indeno[1,2-c]isoquinoline] | +++ (+++, between 75% and 95% activity)
8 | O=C1c2ccccc2-c2c1c1ccc([N+](=O)[O-])cc1c(=O)n2C[C@H](O)CO [Compound 30, (2′S)-5,6-Dihydro-6-(2′,3′-dihydroxypropyl)-3-nitro-5,11-dioxo-11H-indeno[1,2-c]isoquinoline] | ++++

Continued, values first:

Row | Top1 Cleavage | Molecule
9 | ++ (++, between 50 and 75% activity) | O=C1c2ccccc2-c2c1c1ccccc1c(=O)n2C[C@@H](O)[C@H](O)[C@H](O)CO [Compound 17a, (2′R, 3′S, 4′R)-5,6-Dihydro-6-(2′,3′,4′,5′-tetrahydroxypentyl)-5,11-dioxo-11H-indeno[1,2-c]isoquinoline]
10 | 0 | O=C1c2ccccc2-c2c1c1ccccc1c(=O)n2C[C@H](O)[C@H](O)[C@H](O)CO [Compound 17b, (2′S,3′S,4′R)-5,6-Dihydro-6-(2′,3′,4′,5′-tetrahydroxypentyl)-5,11-dioxo-11H-indeno[1,2-c]isoquinoline]
11 | ++ (++, between 50 and 75% activity) | O=C1c2ccccc2-c2c1c1ccccc1c(=O)n2C[C@H](O)[C@@H](O)[C@H](O)[C@H](O)CO [Compound 17c, (2′S,3′R,4′R,5′R)-5,6-Dihydro-6-(2′,3′,4′,5′,6′-pentahydroxyhexyl)-5,11-dioxo-11H-indeno[1,2-c]isoquinoline]
12 | +++ (+++, between 75% and 95% activity) | O=C1c2ccccc2-c2c1c1ccccc1c(=O)n2C[C@@H](O)[C@@H](O)[C@H](O)CO [Compound 17e, (2′R,3′R,4′R)-5,6-Dihydro-6-(2′,3′,4′,5′-tetrahydroxypentyl)-5,11-dioxo-11H-indeno[1,2-c]isoquinoline]
13 | + (+, between 20 and 50% activity) | O=C1c2ccccc2-c2c1c1ccccc1c(=O)n2C[C@@H](O)[C@@H](O)[C@H](O)[C@H](O)CO [Compound 17f, (2′R, 3′R, 4′R, 5′R)-5,6-Dihydro-6-(2′,3′,4′,5′,6′-pentahydroxyhexyl)-5,11-dioxo-11H-indeno[1,2-c]isoquinoline]
14 | + (+, between 20 and 50% activity) | O=C1c2ccccc2-c2c1c1ccccc1c(=O)n2C[C@H](O)[C@@H](O)[C@@H](O)CO [Compound 17g, (2′S,3′R,4′S,5′R)-5,6-Dihydro-6-(2′,3′,4′,5′-tetrahydroxypentyl)-5,11-dioxo-11H-indeno[1,2-c]isoquinoline]
15 | ++ (++, between 50 and 75% activity) | CC[C@H](O)n1c2c(c3ccccc3c1=O)C(=O)c1ccccc1-2 [Compound 22a, (1′S)-5,6-Dihydro-6-(1′-hydroxy-2′-methylethyl)-5,11-dioxo-11H-indeno[1,2-c]isoquinoline]
16 | +++ (+++, between 75% and 95% activity) | C[C@@H](O)Cn1c2c(c3ccccc3c1=O)C(=O)c1ccccc1-2 [Compound 27a, (2′R)-5,6-Dihydro-6-(2′-hydroxypropyl)-5,11-dioxo-11H-indeno[1,2-c]isoquinoline]
17 | +++ (+++, between 75% and 95% activity) | C[C@H](O)Cn1c2c(c3ccccc3c1=O)C(=O)c1ccccc1-2 [Compound 27b, (2′S)-5,6-Dihydro-6-(2′-hydroxypropyl)-5,11-dioxo-11H-indeno[1,2-c]isoquinoline]
18 | + (+, between 20 and 50% activity) | C[C@H](O)Cn1c2c(c3ccccc3c1=O)C(=O)c1ccccc1-2 [Compound 27c, (2′RS)-5,6-Dihydro-6-(2′-hydroxypropyl)-5,11-dioxo-11H-indeno[1,2-c]isoquinoline]
19 | ++ (++, between 50 and 75% activity) | NC[C@H](O)Cn1c2c(c3ccccc3c1=O)C(=O)c1ccccc1-2 [Compound 27d, (2′RS)-5,6-Dihydro-6-(3′-amino-2′-hydroxypropyl)-5,11-dioxo-11H-indeno[1,2-c]isoquinoline]
20 | + (+, between 20 and 50% activity) | (1′R)-5,6-Dihydro-6-(3′-hydroxy-1′-methylethyl)-5,11-dioxo-11H-indeno[1,2-c]isoquinoline [Compound 22b]
21 | + (+, between 20 and 50% activity) | (1′RS)-5,6-Dihydro-6-(3′-hydroxy-2′-methylethyl)-5,11-dioxo-11H-indeno[1,2-c]isoquinoline [Compound 22c]
